Compound activity from PubChem BioAssay.
Hits are enriched below; roughly 16% of the tested compounds scored in any of these assays.
miR-21 FLuc: miR-21 reporter, rising signal | 340,000 tested, under 10 active | AID 2288 | HeLa miR-21 FLuc reporter, luciferase, 48 h | Potency, µM (titrated, usually from 38.3 µM), for inactives: at the highest dose reporter change, positive = more light; active = well fitted rising curve with a large enough effect; inconclusive = small, poorly fitted or top-dose-only effect; inactive = no such curve, though single readings can be large or run the other way;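 further: % of control where 0% means no effect; miR-21 action dims this reporter so a rising signal means less miR-21 action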
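HeLa miR-21-FLuc reporter line, endogenous miR-21; 2000 cells/well in DMEM/10% FBS; compound titration up to ~40uM final, 48 h, 37 degree Celsius; luciferase detection reagent, 15 min lysis, CCD luminescence.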
TDP1 cell noCPT: qHTS for Inhibitors of human tyrosyl-DNA phosphodiesterase 1 (TDP1): qHTS in cells in absence of CPT | DT40 Tdp1-/- hTDP1 cells, no CPT, ATP luminescence, 48 h | Potency, µM (series often up to 46.2 µM), without a hit: top-dose activity change, negative = growth inhibition, hits mostly inhibitors | 15% of 420,000 active; further: potency means the concentration at half of the fitted maximal effect; on the % scale 0 is the no-effect control and ±100 the full control effect; nearly all actives have a fitted effect of over 55% in size
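Readout: luminescence from CellTiter-Glo after 30 min in the dark at RT. Cells: DT40 Tdp1-/- with stable hTDP1, 400/well. Exposure: compounds alone, ≥48 hr, 37 °C.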
TDP1 inh: blocks human tyrosyl-DNA phosphodiesterase 1. Q9NUW8. Potency, µM (doses to about 130 µM), inactives show top-dose activity change, negative = inhibition, most hits filed as inhibitors. 0.28% of 350,000 active. recombinant TDP1, AlphaScreen DNA substrate cleavage. AID 485290; further: potency means the concentration at half of the fitted maximal effect; on the % scale 0 is the no-effect control and ±100 the full control effect; nearly all actives have a fitted effect of over 40% in size
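Recombinant human Tdp1 (E. coli-expressed, 1 nM final) preincubated with compounds 15 min at room temperature, then 5'-biotin/3'-phosphotyrosine-FITC DNA substrate (15 nM final) added for 5 min. AlphaScreen beads (10 ug/ml final) added 10 min; cleavage lowers signal.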
TDP1 cell CPT: DT40-hTDP1 cell growth loss with CPT; chicken DT40 Tdp1-/-;hTDP1 cells + 20 nM CPT, ATP luminescence, 48 h; Potency, µM (doses to about 46.2 µM), inactives show at the highest dose activity change, negative = growth inhibition, most hits filed as inhibitors; 12% of 420,000 active; further: potency means the concentration at half of the fitted maximal effect; on the % scale 0 is the no-effect control and ±100 the full control effect; nearly all actives have a fitted effect of over 55% in size
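Chicken DT40 Tdp1-/- cells complemented with human TDP1, 400 cells/well, exposed to compounds plus 20 nM camptothecin for at least 48 h at 37 C; viability read as ATP content by CellTiter-Glo luminescence.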
uPA generation: cell surface uPA generation inhibition; cell surface uPA generation assay, qHTS; Potency, µM (doses to about 38.3 µM), inactives show top-dose activity change, negative = inhibition, hits mostly inhibitors; 0.31% of 330,000 active; active means well fitted inhibition curve with a large enough effect; inconclusive means small, poorly fitted or top-dose-only effect; inactive means no such curve, though single readings can be large or run the other way; tested in mouse RAW 264.7 cells; further: potency means the concentration at half of the fitted maximal effect; on the % scale 0 is the no-effect control and ±100 the full control effect; nearly all actives have a fitted effect of over 55% in size
Numbers without * were called inactive; ? = inconclusive; . = no result given; [ ] = another dose, or the depositor's remark. Unless noted, the call rests on the fitted dose curve; in most records, active means well fitted curve in the direction sought with a large enough effect; inconclusive means small, poorly fitted or top-dose-only effect, or another doubt; inactive means no such curve, though single readings can be large; an effect the other way counts as inactive or inconclusive.

SMILES	miR-21 FLuc	TDP1 cell noCPT	TDP1 inh	TDP1 cell CPT	uPA generation
CCOC(=O)c1cccc(NC(=O)CC2C(=O)N(c3ccc(F)cc3)C(=O)N2Cc2cccc(OC)c2)c1 (configuration not stated)	14%	?	3%	?	.
O=C(N/N=C/c1ccccc1C(=O)O)C(=O)N1CCCCC1	-2%	7%	5%	1%	2%
O=C1CC(Cc2ccccc2)C(=O)N1CCc1ccc2c(c1)OCO2 (configuration not stated)	-9%	-10%	7%	-1%	4%
O=C1OC[C@H](Cc2ccc3c(c2)OCO3)/C1=C\c1ccc2c(c1)OCO2	.	8.2µM*	.	5.8µM*	?
CC(C)C(=O)Nc1cccc(COc2ccc(CN(CCc3ccccc3)C(=O)OC(C)(C)C)cc2)c1	.	13µM*	.	26µM*	-12%
CC(C)(C)OC(=O)N(Cc1ccccc1)Cc1ccccc1OCc1cccc(NC(=O)C2CCC2)c1	.	16µM*	.	?	?
CC(C)(C)OC(=O)N(Cc1ccccc1)Cc1ccccc1OCc1cccc(NC(=O)C2CC2)c1	.	?	.	?	6%
CC(C)(C)OC(=O)N(CCc1ccccc1)Cc1ccccc1OCc1cccc(NC(=O)C2CCC2)c1	.	13µM*	.	16µM*	-18%
CC(C)(C)OC(=O)N(CCc1ccccc1)Cc1cccc(OCc2cccc(NC(=O)/C=C/c3ccccc3)c2)c1	.	?	.	?	-4%
CCOC(=O)c1ccc(N2C(=O)c3n[nH]c(C)c3C2c2ccc(C(C)(C)C)cc2)cc1 (configuration not stated)	1%	?	2%	-26%	.
CSc1ncccc1C(=O)N1CCN(S(=O)(=O)c2ccc3c(c2)OCCO3)CC1	.	-29%	0%	?	?
CCn1c(SCC(=O)N(C)C2CCCCC2)nc2cc(S(N)(=O)=O)ccc21	.	1%	1%	-5%	-8%
COC(=O)C1=C(C(=O)OC)[C@@H]2N(C)c3ccccc3[C@@]23C[C@@H](C(=O)OC)N(C(=O)CC(C)C)C3=N1	6%	?	18%[12.3 µM]	?	-7%
COC(=O)C1=C(C(=O)OC)SC(=C2C(=S)C(C)(C)N(C(=O)CC(C)C)c3ccccc32)S1	2%	?	12%	26µM*	.
O=C(Cc1n[nH]c(=O)[nH]c1=O)N/N=C/CCc1ccccc1	-22%	-8%	4%	12%	5%
COc1ccc(NC(=O)C(=O)NCC(c2cccnc2)N2CCc3ccccc32)cc1OC (configuration not stated)	-9%	21µM*	3%	?	.
COC(=O)c1ccc(NC(=O)C(=O)NCC(c2cccnc2)N2CCc3ccccc32)cc1 (configuration not stated)	-15%	16µM*	1%	15µM*	.
COc1ccc(C)cc1NC(=O)C(=O)NCC(c1cccnc1)N1CCN(c2ccccc2F)CC1 (configuration not stated)	3%	18µM*	1%	?	.
COc1ccccc1N1CCN(C(CNC(=O)C(=O)NCCCN(C)C)c2cccnc2)CC1 (configuration not stated)	6%	-6%	4%	-11%	.
COc1ccccc1N1CCN(C(CNC(=O)C(=O)NCc2cccnc2)c2cccnc2)CC1 (configuration not stated)	?	?	5%	?	.
COc1ccc(C)cc1NC(=O)C(=O)NCC(c1cccnc1)N1CCc2ccccc21 (configuration not stated)	-3%	15µM*	-3%	?	.
CC(C)c1ccc(NC(=O)C2CC(=O)N(C3CCCC3)C2)cc1 (configuration not stated)	-10%	-11%	14%	-2%	-4%
COC(=O)NCC(c1cccnc1)N1CCN(c2ccccc2F)CC1 (configuration not stated)	-2%	7%	0%	2%	0%

By substructure: the entries above with a halogen
SMILES	miR-21 FLuc	TDP1 cell noCPT	TDP1 inh	TDP1 cell CPT	uPA generation
CCOC(=O)c1cccc(NC(=O)CC2C(=O)N(c3ccc(F)cc3)C(=O)N2Cc2cccc(OC)c2)c1 (configuration not stated)	14%	?	3%	?	.
COc1ccc(C)cc1NC(=O)C(=O)NCC(c1cccnc1)N1CCN(c2ccccc2F)CC1 (configuration not stated)	3%	18µM*	1%	?	.
COC(=O)NCC(c1cccnc1)N1CCN(c2ccccc2F)CC1 (configuration not stated)	-2%	7%	0%	2%	0%
